Test results: ChEMBL document CHEMBL1130863, “N3-methyl-mafosfamide as a chemically stable, alternative prodrug of mafosfamide” (1998)

Test system: NIH3T3
Test: In vitro cytotoxicity was evaluated in mouse embryo BALB/c 3T3 cells
Type: functional
Settings: read-out: LC50

NP(=O)(O)N(CCCl)CCCl
CC50: 3 µM
